In DBAASP one finds MIC data, which are given here for four molecules.

For test [1], the system named is Staphylococcus aureus ATCC 12600. The test is described as follows: ≥ marks a high value that may be exact or a test limit, other limits are often not marked, values filed in µg/mL are converted to µM.
Test [2] relates to Escherichia coli K-12. Described as above.

SMILES strings stand for the structures. ≈ marks a conversion by molar mass, not a printed value. Some results are limits rather than exact numbers.

As for `CC[C@H](C)[C@H](NC(=O)[C@H](CCCCN)NC(=O)[C@@H](N)Cc1ccccc1)C(=O)N[C@@H](CCCCN)C(=O)N[C@@H](C)C(=O)N[C@@H](CO)C(=O)N[C@@H](CCCCN)C(=O)N[C@@H](CCCCN)C(=O)N[C@@H](CC(C)C)C(=O)N[C@@H](CC(C)C)C(=O)N[C@@H](CCCCN)C(=O)N[C@@H](CCCCN)C(=O)N[C@H](C(=O)NCC(=O)N[C@@H](CCCCN)C(=O)NCC(=O)N[C@@H](C)C(=O)N[C@@H](CC(C)C)C(=O)NCC(=O)N[C@@H](C)C(=O)N[C@H](C(=O)N[C@@H](C)C(=O)N[C@@H](CCCCN)C(=O)N[C@@H](C)C(=O)N[C@@H](CC(C)C)C(=O)N[C@@H](C)C(=O)N[C@@H](CCC(N)=O)C(=O)N[C@@H](CCC(N)=O)C(=O)N[C@@H](C)C(=O)O)C(C)C)C(C)C` [FKIKASKKLLKKVGKGALGAVAKALAQQA], the MIC was not below 128 µM in test [1] and 4 µM (≈ 11.9 µg/mL) in test [2].

In the case of `CC[C@H](C)[C@H](NC(=O)[C@@H]1CCCN1C(=O)[C@H](CCCCN)NC(=O)[C@H](CC(C)C)NC(=O)[C@H](C)NC(=O)[C@@H](NC(=O)[C@@H](NC(=O)[C@H](CC(C)C)NC(=O)[C@@H](NC(=O)[C@H](CCCCN)NC(=O)[C@H](CCCCN)NC(=O)[C@H](C)NC(=O)[C@H](C)NC(=O)[C@H](CO)NC(=O)[C@@H](NC(=O)[C@H](CC(C)C)NC(=O)[C@H](CCCCN)NC(=O)[C@H](CCCCN)NC(=O)[C@H](CC(C)C)NC(=O)[C@H](Cc1ccccc1)NC(=O)[C@H](CO)NC(=O)[C@H](CCCCN)NC(=O)[C@H](Cc1c[nH]c2ccccc12)NC(=O)[C@@H](N)CCCCN)[C@@H](C)O)C(C)C)[C@@H](C)O)[C@@H](C)O)C(=O)N[C@@H](CO)C(=O)N[C@@H](CO)C(=O)O` [KWKSFLKKLTSAAKKVLTTALKPISS], the MIC in test [1] is not below 64 µM; in test [2], 4 µM (≈ 11.5 µg/mL).

With `CC[C@H](C)[C@H](NC(=O)[C@@H]1CCCN1C(=O)[C@H](CCCCN)NC(=O)[C@H](CC(C)C)NC(=O)[C@H](C)NC(=O)[C@@H](NC(=O)[C@H](Cc1ccc(O)cc1)NC(=O)[C@H](Cc1ccccc1)NC(=O)[C@@H](NC(=O)[C@@H](NC(=O)[C@H](CCCCN)NC(=O)[C@@H](NC(=O)[C@@H]1CCCN1C(=O)[C@H](CO)NC(=O)[C@H](CCCCN)NC(=O)[C@H](Cc1ccccc1)NC(=O)[C@@H](NC(=O)[C@H](CCCCN)NC(=O)[C@H](CC(C)C)NC(=O)[C@H](Cc1ccccc1)NC(=O)[C@H](CO)NC(=O)[C@H](CCCCN)NC(=O)[C@H](Cc1c[nH]c2ccccc12)NC(=O)[C@@H](N)CCCCN)[C@@H](C)O)C(C)C)[C@@H](C)O)C(C)C)[C@@H](C)O)C(=O)N[C@@H](CO)C(=O)N[C@@H](CO)C(=O)O` [KWKSFLKTFKSPVKTVFYTALKPISS], the MIC was not below 128 µM in test [1] and 2 µM (≈ 6.07 µg/mL) in test [2].

`CC(C)C[C@H](NC(=O)[C@H](CC(N)=O)NC(=O)[C@H](CCC(=O)O)NC(=O)[C@H](CC(N)=O)NC(=O)[C@H](CC(C)C)NC(=O)[C@@H](N)C(C)C)C(=O)N[C@@H](C)C(=O)N[C@@H](C)C(=O)O` [VLNENLAA] displayed a minimal inhibitory concentration (MIC) in test [1] not below 128 µM.

As usually defined, the MIC is the lowest concentration that inhibits growth of the organism. Higher therefore signals weaker potency.
